Data as given in patent publication US9408888B2, “High affinity bivalent helically constrained peptide against cancer” (COUNCIL OF SCIENTIFIC AND INDUSTRIAL RESEARCH, priority 2011, dated 2016).

Legend:
[1] = target: T1, S100B (Homo sapiens, UniProt P04271); assay: Fluorescence anisotropy binding of N-terminal fluorescein labeled peptides to S100B; details: 50 mM Tris-HCl pH 7.5, 50 mM NaCl, 10 mM CaCl2, 25 degree C, read-out: Kd (dissociation constant) for S100B
T1 sequence (P04271 1-92): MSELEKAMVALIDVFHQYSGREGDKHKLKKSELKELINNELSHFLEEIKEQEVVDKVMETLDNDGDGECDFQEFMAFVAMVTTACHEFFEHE
Source text: (§1) FIG. 2. (A) Table of some representative peptides synthesized which respectively include pM-53 (SEQ ID No. 6), pBN-53 (SEQ ID No. 7), pBDC-53 (SEQ ID No. 8), pBM-TRTK (SEQ ID No. 2), pBDC-TRTK (two SEQ ID No. 2's cross-linked together with BMH), and pBBD-TRTK (SEQ ID No. 11) and their dissociation constants. Binding isotherm of branch dimeric SEQ ID No. 3 (i.e., SEQ ID No. 11) with (B) S-100B and (C) S100P and (D) branch dimeric SEQ ID No. 5 (i.e., SEQ ID No. 12) with S100B. Fluorescein labeled, 5 nM branch dimeric SEQ ID No. 3 (i.e., SEQ ID No. 11) or branch dimeric SEQ ID No. 5 (i.e., SEQ ID No. 12) was titrated with increasing concentrations of S100B or S100P in 50 mM Tris-HCl buffer, pH 7.5, containing 50 mM NaCl and 10 mM CaCl2 at ambient temperatures which was 25±1 degree C. Anisotropy was determined at each point. The each point is averaging of at least three independent experiments. The line is best fit to a single site binding equation given in description of the invention.
Binding affinity of aib substituted p53 (SEQ ID No. 7) (and all other peptides) was estimated by fluorescence anisotropy using N-terminal fluorescein labeled peptides. […] Since S100B is a dimer, one possible way to enhance the binding is to synthesize a bivalent molecule, which can simultaneously bind to two subunits. […]

[2] = target: T2, S100P (Homo sapiens, UniProt P25815); assay: Fluorescence anisotropy binding of fluorescein labeled peptide to S100P; details: closest paralog of S100B
T2 sequence (P25815 1-95): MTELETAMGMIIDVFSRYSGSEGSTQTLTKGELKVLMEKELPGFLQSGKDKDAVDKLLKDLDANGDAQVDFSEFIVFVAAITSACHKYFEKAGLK
Source text: as §1
Binding data of the several of these peptides are shown in FIG. 2 (A) and some of the corresponding binding isotherms are shown FIG. 2(B-D). […] Also synthesized was a mutant branched peptide (SEQ ID No. 12 which is a lysine branch dimeric form of SEQ ID No. 5) bearing two mutations in the interacting residues. […] This peptide will be used as a control in the cellular experiments to be described later.

## CC[C@H](C)[C@H](NC(=O)[C@H](CCCCN)NC(=O)[C@@H](NC(=O)[C@H](CCCNC(=N)N)NC(=O)[C@@H](N)[C@@H](C)O)[C@@H](C)O)C(=O)N[C@@H](CC(=O)O)C(=O)N[C@@H](Cc1c[nH]c2ccccc12)C(=O)NC(C)(C)C(=O)N[C@@H](CCCCN)C(=O)N[C@H](C(=O)N[C@@H](CC(C)C)C(=O)NC(C)(C)C(=O)N[C@@H](CCCCN)C(=O)NCCCCCC(=O)NCCCC[C@H](NC(=O)CCCCCNC(=O)[C@H](CCCCN)NC(=O)C(C)(C)NC(=O)[C@H](CC(C)C)NC(=O)[C@@H](NC(=O)[C@H](CCCCN)NC(=O)C(C)(C)NC(=O)[C@H](Cc1c[nH]c2ccccc12)NC(=O)[C@H](CC(=O)O)NC(=O)[C@@H](NC(=O)[C@H](CCCCN)NC(=O)[C@@H](NC(=O)[C@H](CCCNC(=N)N)NC(=O)[C@@H](N)[C@@H](C)O)[C@@H](C)O)[C@@H](C)CC)[C@@H](C)CC)C(N)=O)[C@@H](C)CC [branch dimeric SEQ ID No. 3]
[1]
  Kd: 7.7 ± 3.5 nM
[2]
  weaker binding to S100P than to S100B (selectivity): approximately 7 fold
